According to patent US5986061A (priority 1995, dated 1999):

What was measured:
[1] = tested on: vesicular stomatitis virus and bovine MDBK cells; conditions: literature (16, 28, 63); cited from earlier work
[2] = target: T1, Hu-IFN-α/β receptor on bovine MDBK cells (Bos taurus, UniProt Q04790+Q95141); conditions: literature (16, 28, 63); cited from earlier work
T1 construct: endogenous in cells; host or cells: MDBK
T1 sequence (Q04790 25-560): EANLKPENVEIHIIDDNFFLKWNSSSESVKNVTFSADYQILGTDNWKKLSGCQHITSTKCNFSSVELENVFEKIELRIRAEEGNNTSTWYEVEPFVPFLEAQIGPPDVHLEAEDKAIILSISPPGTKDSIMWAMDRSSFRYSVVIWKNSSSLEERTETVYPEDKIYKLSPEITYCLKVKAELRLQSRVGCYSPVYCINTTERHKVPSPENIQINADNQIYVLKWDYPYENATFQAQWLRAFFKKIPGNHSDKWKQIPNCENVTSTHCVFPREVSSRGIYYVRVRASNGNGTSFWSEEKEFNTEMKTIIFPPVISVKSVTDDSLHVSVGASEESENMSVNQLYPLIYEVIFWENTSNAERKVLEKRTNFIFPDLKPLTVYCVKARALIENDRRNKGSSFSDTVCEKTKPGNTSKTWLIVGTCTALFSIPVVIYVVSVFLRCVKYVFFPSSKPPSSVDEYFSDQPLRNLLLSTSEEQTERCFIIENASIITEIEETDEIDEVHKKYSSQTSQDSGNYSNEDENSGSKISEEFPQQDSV
T1 sequence (Q95141 27-530): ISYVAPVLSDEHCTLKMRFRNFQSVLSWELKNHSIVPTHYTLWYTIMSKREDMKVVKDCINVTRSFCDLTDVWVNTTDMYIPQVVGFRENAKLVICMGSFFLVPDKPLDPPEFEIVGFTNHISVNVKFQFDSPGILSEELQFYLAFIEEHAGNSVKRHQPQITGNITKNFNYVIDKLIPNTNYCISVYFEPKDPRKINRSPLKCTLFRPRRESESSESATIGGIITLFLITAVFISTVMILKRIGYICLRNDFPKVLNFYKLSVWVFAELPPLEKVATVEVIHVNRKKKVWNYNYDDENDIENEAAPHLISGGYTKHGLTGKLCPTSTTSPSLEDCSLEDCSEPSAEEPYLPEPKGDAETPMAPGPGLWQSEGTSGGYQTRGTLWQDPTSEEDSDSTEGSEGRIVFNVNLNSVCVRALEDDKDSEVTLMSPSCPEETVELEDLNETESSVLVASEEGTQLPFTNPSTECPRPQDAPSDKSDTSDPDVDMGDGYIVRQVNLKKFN

[3] = target: T2, Hu-IFN-α/β receptor on human Daudi cells (Homo sapiens, UniProt P17181+P48551); assay: Binding of 32P-labelled interferon to human Daudi cells; conditions: unlabelled interferon as competitor
T2 construct: to human Daudi cells was performed as described previously (17); endogenous in cells; host or cells: Daudi
T2 sequence (P48551 27-515): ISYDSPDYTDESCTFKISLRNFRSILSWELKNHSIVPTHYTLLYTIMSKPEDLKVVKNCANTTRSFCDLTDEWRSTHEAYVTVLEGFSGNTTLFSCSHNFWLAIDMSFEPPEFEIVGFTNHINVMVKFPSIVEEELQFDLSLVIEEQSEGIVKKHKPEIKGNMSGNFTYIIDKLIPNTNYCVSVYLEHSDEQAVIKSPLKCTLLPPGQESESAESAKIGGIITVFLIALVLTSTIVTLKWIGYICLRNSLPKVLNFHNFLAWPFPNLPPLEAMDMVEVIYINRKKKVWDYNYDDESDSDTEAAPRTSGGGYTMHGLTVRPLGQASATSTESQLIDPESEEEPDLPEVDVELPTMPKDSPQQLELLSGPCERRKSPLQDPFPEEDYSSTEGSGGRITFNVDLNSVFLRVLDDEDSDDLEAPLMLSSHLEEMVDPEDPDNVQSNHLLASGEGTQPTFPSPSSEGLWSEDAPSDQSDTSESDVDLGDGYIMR
T2 sequence (P17181 28-557): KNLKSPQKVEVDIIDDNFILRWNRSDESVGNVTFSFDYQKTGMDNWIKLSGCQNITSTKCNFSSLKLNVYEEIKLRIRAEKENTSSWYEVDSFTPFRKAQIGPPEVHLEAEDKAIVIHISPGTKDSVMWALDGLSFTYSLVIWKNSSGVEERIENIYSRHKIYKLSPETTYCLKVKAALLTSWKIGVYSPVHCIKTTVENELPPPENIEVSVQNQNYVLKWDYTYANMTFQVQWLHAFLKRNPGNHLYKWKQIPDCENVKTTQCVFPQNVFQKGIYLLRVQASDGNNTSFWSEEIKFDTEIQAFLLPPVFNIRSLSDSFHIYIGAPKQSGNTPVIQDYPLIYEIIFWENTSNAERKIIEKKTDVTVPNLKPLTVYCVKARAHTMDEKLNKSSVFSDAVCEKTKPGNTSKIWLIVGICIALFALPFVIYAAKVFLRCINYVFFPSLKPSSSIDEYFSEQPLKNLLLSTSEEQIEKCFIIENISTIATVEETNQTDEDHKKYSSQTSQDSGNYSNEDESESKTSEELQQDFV

Row | Substance | antiviral activity on MDBK cell line [1] | binding to MDBK cell line [2] | competition for binding of [32P]Hu-IFN-αA-P derivatives [3]
1 | Hu-IFN-αA: human leukocyte (alpha) interferon species A, unmodified, not phosphorylatable | high antiviral activity | binds | 
2 | Hu-IFN-β: human fibroblast (beta) interferon |  |  | competitively blocked
